The list shows a part of the results, in another mix than the full data. Some tests of the compounds listed are not included; inactive here does not mean inactive elsewhere. Calls of active or inactive are those of the source. Cut-off read from the data, not from the text of the source: active = inhibition above about 22%; inactive = the rest.

The text below walks through data of PubChem BioAssay AID1825 (The Scripps Research Institute Molecular Screening Center, 2009).

The assay can be described thus: cytotoxicity in IEC-6 intestinal epithelial cells, primary screen, cytotoxicity control for KLF5 inhibitor project, cell-based, luminescence (AID 1825).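 Note: 0% = plate median of test compound wells and 100% = cytotoxic reference compound wells.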 The conditions noted are these: IEC-6 cytotoxicity, luminescence viability; at 5 µM; active compounds read high.
Turning to `Cc1ccccc1C(=O)NCC1(N2CCCCC2)CCCCC1`, the inhibition (as a rule, the drop in the measured response relative to a control, in per cent) is inactive: 9.1%.

Turning to `CN(C)c1ccc(C(=O)NCC2(N(C)C)CCCCC2)cc1`, the inhibition is inactive: 3%.

Regarding `CN(C)C1CCCC1OC(=O)C(O)(c1ccccc1)c1ccccc1` (centres undefined), the inhibition was inactive: 1.9%.

`COc1ccc(C(=O)NCC2(N(C)C)CCCCC2)cc1`: the inhibition is inactive: 6.5%.

On to `CCN1CCCC(OC(=O)C2(O)c3ccccc3C=Cc3ccccc32)C1` (centres undefined), for which the inhibition is inactive: 2.3%.

Take `Cc1cc(C(=O)NCC2(N3CCCCC3)CCCCC2)ccc1[N+](=O)[O-]`: the inhibition is inactive: 10%.

With `O=C(NCC1(N2CCCCC2)CCCCC1)c1cccc(Br)c1`, the inhibition is inactive: 2.8%.

As to `C=CCN1CCN(CCOC(=O)C(O)(c2ccccc2)c2ccccc2)CC1`, the inhibition is inactive: -2.3%.

On to `O=C(NCC1(N2CCCCC2)CCCCC1)c1cc(F)c(F)cc1Cl`, for which the inhibition was inactive: -1.5%.

Regarding `CN1[C@@H]2CC[C@H]1CC(OC(=O)C(O)(c1ccccc1)c1ccccc1)C2` (some centres undefined), the inhibition is inactive: -2.2%.

With `O=C(NCC1(N2CCCCC2)CCCCC1)c1cc([N+](=O)[O-])ccc1Cl`, the inhibition is inactive: 0.1%.

Consider `Cc1ccc(C(=O)NCC2(N3CCCCC3)CCCCC2)cc1`, for which the inhibition is inactive: 5%.

As for `CCN(CC)CC(C)C(C)OC(=O)C(O)(c1ccccc1)c1ccccc1` (centres undefined), the inhibition is inactive: -5.1%.

With `COc1cc(SC)ccc1C(=O)NCC1(N(C)C)CCCCC1`, the inhibition is inactive: 1.6%.

For the molecule `CC(C)N1C(=O)CC2(CCN(CCOC(=O)C(O)(c3ccccc3)c3ccccc3)CC2)C1=O`, the inhibition was inactive: -1.1%.

On to `O=C(OC1CN2CCC1CC2)C(CO)(c1ccccc1)c1ccccc1` (centres undefined), for which the inhibition is inactive: 6.6%.

In the case of `CC(C)Oc1ccc(C(=O)NCC2(N(C)C)CCCCC2)cc1`, the inhibition was inactive: 9.8%.

In the case of `CN(C)c1cccc(C(=O)NCC2(N(C)C)CCCCC2)c1`, the inhibition was inactive: -0.2%.

With `COc1ccc(Br)c(C(=O)NCC2(N3CCCCC3)CCCCC2)c1`, the inhibition was inactive: -4.2%.

Regarding `COc1cc(C(=O)NCC2(N(C)C)CCCCC2)c([N+](=O)[O-])cc1OC`, the inhibition is inactive: 5%.

`CN(C)C1(CNC(=O)c2ccc(Br)cc2)CCCCC1`: the inhibition is inactive: -2%.

In the case of `O=C(NCC1(N2CCCCC2)CCCCC1)c1cccc(Cl)c1`, the inhibition is inactive: -4.9%.

Take `COc1cccc(C(=O)NCC2(N3CCCCC3)CCCCC2)c1`: the inhibition was inactive: -6%.

Turning to `COc1ccc(Cl)cc1C(=O)NCC1(N(C)C)CCCCC1`, the inhibition was inactive: 3.3%.
